Consider 1 substance from publication PMC2720045 (Proteins, 2009).

Protein sequences, listed by entry. Tags and fused reporters are not part of them. Residues count along the entry.
UniProt P00791, 60-385: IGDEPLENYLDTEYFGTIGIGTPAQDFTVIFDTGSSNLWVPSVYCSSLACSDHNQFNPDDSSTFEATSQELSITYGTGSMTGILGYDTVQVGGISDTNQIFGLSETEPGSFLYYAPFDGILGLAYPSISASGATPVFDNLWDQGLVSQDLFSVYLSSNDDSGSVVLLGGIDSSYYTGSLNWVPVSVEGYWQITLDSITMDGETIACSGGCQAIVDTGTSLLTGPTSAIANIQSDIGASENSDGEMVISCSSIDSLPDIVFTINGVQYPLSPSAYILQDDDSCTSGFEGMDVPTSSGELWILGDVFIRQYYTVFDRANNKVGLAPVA

The assay has as its target porcine pepsin (Sus scrofa, UniProt P00791). The assay is described as follows: DSC of pepsin with inhibitors. The assay is classed as binding. To be noted: DSC pH 3; […] (APV) or 2-fold (Ac-PEP) molar excess; unliganded pepsin Tm 74.2.

For acetyl pepstatin [Ac-PEP], the ΔTm pepsin is at least 17 °C.
